Source: US20250320281A1 (published 2025)

B1: 1456_P20 (PG20) (antibody, V domains shown)
VH: QVRLVQSGPEVKKPGSSVTVSCQASGGTFSSYAFTWVRQAPGQGLEWLGMVTPIFGEAKYSQRFEGRVTITADESTSTTSIELRGLTSEDTAIYYCARDRRAVPIATDNWLDPWGQGTLVTVSS
VL: DIQLTQSPSSLSASVGDRVSITCRASQTINNYLNWYQQTPGKAPKLLIYGASNLQNGVPSRFSGSGSGTDFTLTISSLQPEDFATYYCQQSFSTPRTFGQGTRLDIKR
B2: 1460_G14 (PGG14) (antibody, V domains shown)
VH: QVLLVQSGTEVKKPGSSVKVSCQASGGAFSSYAFSWVRQAPGQGLEWMGMITPVFGETKYAPRFQGRLTLTAEESLSTTYMELRSLTSDDTAFYYCTRDRRVVPMATDNWLDPWGQGTLVTVSS
VL: B1 VL with S20T, I21V, N30H, N31T, T39I, N53T, N56S, S76N, F92Y
B3: 1456_P20 (PG20) (antibody, V domains shown)
VH: B1 VH
VL: B1 VL

What was measured:
[1] = target: aMLV envelope on pseudotyped virus (negative control) (aMLV); assay: cell-based or functional assay
[2] = target: aMLV envelope protein on pseudovirus; assay: cell-based or functional assay

Binder | Neutralizing Antibody Assay: IC50; Virus/Ab Incubation 1 hour [1] | Neutralizing Antibody Assay: IC50; Virus/Ab Incubation 18 hour [1] | IC50, pseudovirus neutralization [2]
B1 | > 50 µg/mL | > 50 µg/mL | 
B2 |  |  | > 50 µg/mL
B3 |  |  | > 50 µg/mL

Where a chain is given by its changes, count along the chain named.
